We go through one molecule from PMC11653366 (2024).

Ends that are not written are not given here. * marks the point of attachment. FITC = O=C1OC2(c3ccc(O)cc3Oc3cc(O)ccc32)c2ccc(NC(=S)*)cc21; Ahx = NCCCCCC(=O)O

As usually defined, the Kd is a measure of binding affinity in units of concentration. A low value points to higher affinity.

One assay concerns the target T1, F*-PLLP.
T1 chain: {FITC-Ahx}-LASRPLPLLP
Briefly: fluorescence anisotropy. (In general: In fluorescence polarisation assays a small probe gives low polarisation when free and higher when bound to something large.)

In the next assay the target is T2, F*-p40.
T2 chain: {FITC-Ahx}-APTYSPPPPP
Briefly: fluorescence anisotropy.

B1: Abl SH3 SH3 (protein)
chain: PSENDPNLFVALYDFVASGDNTLSITKGEKLRVLGYNHNGEWCEAQTKNGQGWVPSNYITPVNSLEK
On to B1, for which the Kd with F*-PLLP was over 1000 µM; in the assay with F*-p40, 3.1 µM.
